Experimental findings from ChEMBL document CHEMBL1154630, “Discovery of colon tumor cell growth inhibitory agents through a combinatorial approach” (Eur J Med Chem, 2010) are described below.

Chains of the proteins cited; added tags and fusions are not shown.
UniProt P11309, whole entry: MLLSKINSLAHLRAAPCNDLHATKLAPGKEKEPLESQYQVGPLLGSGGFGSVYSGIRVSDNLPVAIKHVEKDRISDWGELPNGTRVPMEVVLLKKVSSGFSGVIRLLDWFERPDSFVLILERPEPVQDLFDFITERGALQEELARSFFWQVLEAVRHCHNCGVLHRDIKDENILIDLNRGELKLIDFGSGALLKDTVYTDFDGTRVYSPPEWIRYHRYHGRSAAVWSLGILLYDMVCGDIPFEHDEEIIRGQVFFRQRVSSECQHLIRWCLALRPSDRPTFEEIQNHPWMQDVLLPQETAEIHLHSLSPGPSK

For this experiment, the target named is Serine/threonine-protein kinase pim-1 (Homo sapiens, UniProt P11309). Description: Inhibition of PIM1.

In turn, `N#Cc1c(-c2ccccc2)cc(-c2cc(Br)ccc2O)[nH]c1=O` came in with an IC50 of 50 nmol.
